Reference: article PMC6355875 (Scientific Reports, 2019)

Amino acid sequences for entries named in this document (tags omitted). Residues count along the entry.
UniProt P37231, 212-505 limits assumed: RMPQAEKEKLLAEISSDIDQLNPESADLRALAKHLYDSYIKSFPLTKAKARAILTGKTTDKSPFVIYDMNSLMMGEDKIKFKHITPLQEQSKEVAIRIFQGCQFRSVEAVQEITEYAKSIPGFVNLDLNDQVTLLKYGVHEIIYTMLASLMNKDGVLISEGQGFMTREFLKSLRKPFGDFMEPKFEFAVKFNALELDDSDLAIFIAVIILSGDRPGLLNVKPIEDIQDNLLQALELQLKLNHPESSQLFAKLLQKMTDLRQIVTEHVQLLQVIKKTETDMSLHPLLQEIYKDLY
UniProt Q07869, 175-468 limits assumed: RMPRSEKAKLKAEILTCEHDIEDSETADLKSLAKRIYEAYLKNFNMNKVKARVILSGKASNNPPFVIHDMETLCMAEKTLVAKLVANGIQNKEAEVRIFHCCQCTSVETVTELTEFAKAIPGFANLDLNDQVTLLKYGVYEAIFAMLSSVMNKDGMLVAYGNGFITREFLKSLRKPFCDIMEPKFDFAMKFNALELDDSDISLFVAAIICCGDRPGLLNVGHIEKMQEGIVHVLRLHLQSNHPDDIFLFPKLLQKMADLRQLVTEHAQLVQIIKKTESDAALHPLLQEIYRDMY

Columns and labels:
hPPAR-γ = hPPAR-γ (Homo sapiens, UniProt P37231); assay: GAL4-DBD hPPARγ/LBD luciferase reporter assay in HEK293T cells; type: cell-based; details: read-out: EC50 PPAR-γ; Table S7
hPPAR-α = hPPAR-α (Homo sapiens, UniProt Q07869); assay: GAL4-DBD hPPARα/LBD luciferase reporter assay in HEK293T cells; type: cell-based; details: read-out: EC50 PPAR-α; Table S7

Structure (SMILES)	EC50 (hPPAR-γ)	EC50 (hPPAR-α)
COc1ccc(C(NCC(=O)Nc2ccc(N3CCCC3)cc2)c2ccccc2)cc1 (stereo not shown)	6 µM	> 10 µM
COc1ccc(C(=O)/C=C/c2cccc(C(F)(F)F)c2)cc1CSCC(=O)O	1.61 µM	2.2 µM
COc1ccc(C(=O)/C=C/c2ccc(C(F)(F)F)cc2)cc1CSCC(=O)O	5.84 µM	4.45 µM
Cc1cc(C(=O)COc2ccc(CC(=O)O)cc2)c(C)n1-c1ccc(F)c(Cl)c1	> 10 µM	9.02 µM
CCc1ccc(-c2nnc(SCC(=O)c3cc(C)n(-c4cccc(C(F)(F)F)c4)c3C)[nH]2)cc1	8.62 µM	> 10 µM
COc1ccc(C(=O)/C=C/c2ccc(OC(F)F)c(OC)c2)cc1CSCC(=O)O	7.77 µM	2.36 µM
OC(CN1CCC(CCCC2CCN(CC(O)c3ccccc3)CC2)CC1)c1ccccc1 (stereo not shown)	> 10 µM	8.2 µM
COc1cc(C(=O)NCc2ccc(C(=O)O)cc2)cc(Cl)c1OCC(C)C	> 10 µM	9.55 µM
Cc1cccc2c(CN(Cc3ccc(-c4ccc(Cl)cc4)o3)Cc3cc(=O)oc4c(C)c(O)ccc34)cc(=O)oc12	7.2 µM	> 10 µM
COc1ccc(C(=O)/C=C/c2ccc(C(C)(C)C)cc2)cc1CSCC(=O)O	2.78 µM	1.6 µM
CC(OC(=O)c1ccc(CO)cc1)C(=O)Nc1ccc(OCc2ccccc2)cc1 (stereo not shown)	1.19 µM	> 10 µM
COc1cc(CNC2CCOc3ccccc32)ccc1OCC(=O)Nc1ccc(F)c(Cl)c1 (stereo not shown)	> 10 µM	1.65 µM
COc1ccc(-c2cc(COc3cc4ccccc4cc3C(=O)O)on2)cc1	8.76 µM	> 10 µM
O=C(O)CCCOc1ccc(C(=O)/C=C/c2cnn(Cc3ccccc3Cl)c2)cc1	> 10 µM	8.31 µM
CC(Oc1ccc(C(=O)NCc2cc([N+](=O)[O-])ccc2O)cn1)c1ccccc1 (stereo not shown)	0.348 µM	7.64 µM
CC(C)Oc1ccc(-c2nn(-c3ccccc3)cc2CNCCCN2CCC(O)CC2)cc1	> 10 µM	8.83 µM
CCCOc1ccc(OCC(=O)NCc2ccc(OC)c(C(=O)O)c2)cc1	> 10 µM	5.98 µM
COc1cc(CN(C)C(=O)NCc2cccc(O)c2)ccc1OCc1ccccc1	6.92 µM	> 10 µM
Cc1nn(-c2ccccc2)c(Cl)c1/C=C/C(=O)c1ccc(OCCCC(=O)O)cc1	1.7 µM	1.38 µM
COc1ccc(C2=NN(c3nc(-c4ccccc4)c(CC(=O)O)s3)C(c3ccco3)C2)cc1 (stereo not shown)	6.27 µM	> 10 µM
CCOc1cc(/C=C/c2cc(C(=O)O)c3ccccc3n2)ccc1OC(F)F	7.47 µM	6.77 µM
Cc1ccc(OCCNC(C(=O)Nc2ccc([N+](=O)[O-])cc2Cl)c2ccccc2)cc1 (stereo not shown)	6.31 µM	> 10 µM
COc1ccc(-c2nnc(SCC(=O)N3CCN(c4cccc(C(F)(F)F)c4)CC3)[nH]2)cc1	7.18 µM	> 10 µM
COc1ccc(Oc2ccc(CNC(=O)c3cc4c(cc3O)OCO4)cn2)cc1	9.05 µM	> 10 µM
O=C(O)c1ccc(OCCOc2ccc(Oc3ccccc3)cc2)cc1	7.84 µM	> 10 µM
COc1cc(C(=O)/C=C/c2ccccc2OCc2ccccc2)ccc1SCC(=O)O	1.21 µM	4.55 µM
Cc1ccc2[nH]c(SCC(=O)c3cc(C)n(-c4ccc5c(c4)OCCO5)c3C)nc2c1	8.75 µM	> 10 µM

Structure (SMILES)	EC50 (hPPAR-γ)	EC50 (hPPAR-α)
COc1ccc(CCC(=O)Nc2ccc(/C=C/C(=O)O)cc2)cc1OC	> 10 µM	7.7 µM
CCn1c(-c2ccc3c(c2)OCCO3)cnc1SCC(=O)c1ccc(O)cc1O	9.9 µM	4.7 µM
COc1ccc(Cl)cc1-c1nnc(SCC(=O)c2cc(C)n(-c3ccc4c(c3)OCCO4)c2C)[nH]1	4.15 µM	> 10 µM
Cc1nn(-c2ccccc2)c(Cl)c1/C=C/C(=O)c1ccc(OC(C)C(=O)O)cc1 (stereo not shown)	> 10 µM	8.32 µM
Cc1cc(C(=O)COC(=O)c2ccc(O)cc2O)c(C)n1-c1ccc(OC(F)F)cc1	2.06 µM	> 10 µM
O=C(COc1ccc(C(=O)/C=C/c2cccc(O)c2)cc1)Nc1ccccc1	2.05 µM	8.83 µM
O=C(Nc1ccccc1O)C1CCN(C(=O)c2ccc(COc3ccccc3)o2)CC1	> 10 µM	7.85 µM
Cc1cccc(OCC(=O)NCc2ccc(N3CCC(CO)CC3)cc2)c1	8.36 µM	> 10 µM
O=C(CCc1ccccc1O)NCc1ccc(Oc2cccnc2)c(F)c1	> 10 µM	6.82 µM
COc1ccc(CNC(=O)c2ccc(OCCC(C)C)cc2)cc1C(=O)O	> 10 µM	4.64 µM
COc1cc(/C=C/C(=O)OC(C)C(=O)Nc2ccc(C(C)C)cc2)ccc1O (stereo not shown)	4.72 µM	3.13 µM
COc1cc(C(=O)/C=C/c2cn(-c3ccccc3)nc2-c2cc3ccccc3o2)ccc1OCC(=O)O	5.37 µM	3.33 µM
COc1ccc(CCNC(=O)N2CCC(c3ccc(O)cc3)CC2)cc1OC	6.02 µM	> 10 µM
COc1ccc(C(=O)/C=C/c2ccc(-c3ccccc3)cc2)cc1CSCC(=O)O	> 10 µM	1.2 µM
COc1cc(/C=C/C(=O)OCC(=O)Nc2ccc(C(C)C)cc2)ccc1O	> 10 µM	8.91 µM
Cc1cc(C(=O)CSc2n[nH]c(-c3ccccc3)n2)c(C)n1Cc1ccc2c(c1)OCO2	7.21 µM	> 10 µM
O=C(NCc1ccc(COCC(F)(F)F)cc1)N1CCN(c2ccccc2O)CC1	8.11 µM	> 10 µM
O=c1oc2c(CN3CCN(CCO)CC3)c(O)ccc2cc1-c1nc2ccccc2s1	7.01 µM	> 10 µM
CC1CCN(c2ccc(NC(=O)CNC(c3ccc(F)cc3)c3cccs3)cc2)CC1 (stereo not shown)	0.949 µM	4.81 µM
Cc1ccc(C(=O)Nc2cccc(CNCc3cccc(C(F)(F)F)c3)c2)cc1	> 10 µM	4.78 µM
COc1ccc(NC(=O)c2ccc(COC(=O)c3ccc(C)c(O)c3)cc2)cc1	> 10 µM	8.37 µM
COc1cc(/C=C/C(=O)OCc2csc(Nc3ccc(C)cc3)n2)ccc1O	2.28 µM	> 10 µM
OCCN1CCN(CC(O)COc2ccc(C34CC5CC(CC(C5)C3)C4)cc2)CC1 (stereo not shown)	> 10 µM	7.75 µM
COc1cc(/C=C/C(=O)c2ccc(SCC(=O)O)c(OC)c2)ccc1OC(F)F	7.01 µM	8.76 µM
CCCc1cc(O)nc(SCC(=O)NC(c2ccccc2)c2ccc(OC)cc2)n1 (stereo not shown)	6.87 µM	> 10 µM
O=C(O)COc1ccc(/C=C/C(=O)c2ccc(C3CCCCC3)cc2)cc1	> 10 µM	1.86 µM
